# System: Nc1ncnc2c1ncn2[C@@H]1O[C@H](COP(=O)(O)OP(=O)(O)OP(=O)(O)O)[C@@H](O)[C@H]1O
# Assay: purified protein
# Settings: detergent-solubilised, 20 mM Tris pH 7.4, 200 mM NaCl, 10 mM MgCl2, 0.2% Triton X-100, 37 °C, data fitted to a sigmoidal equation
substance,measurement,value
VcaM (Vibrio cholerae non-O1),Km,852 µM
same,kcat,0.07 s⁻¹
